{"sequences": {"note": "Chains of the proteins cited; added tags and fusions are not shown.", "UniProt Q13546, whole entry, species assumed": "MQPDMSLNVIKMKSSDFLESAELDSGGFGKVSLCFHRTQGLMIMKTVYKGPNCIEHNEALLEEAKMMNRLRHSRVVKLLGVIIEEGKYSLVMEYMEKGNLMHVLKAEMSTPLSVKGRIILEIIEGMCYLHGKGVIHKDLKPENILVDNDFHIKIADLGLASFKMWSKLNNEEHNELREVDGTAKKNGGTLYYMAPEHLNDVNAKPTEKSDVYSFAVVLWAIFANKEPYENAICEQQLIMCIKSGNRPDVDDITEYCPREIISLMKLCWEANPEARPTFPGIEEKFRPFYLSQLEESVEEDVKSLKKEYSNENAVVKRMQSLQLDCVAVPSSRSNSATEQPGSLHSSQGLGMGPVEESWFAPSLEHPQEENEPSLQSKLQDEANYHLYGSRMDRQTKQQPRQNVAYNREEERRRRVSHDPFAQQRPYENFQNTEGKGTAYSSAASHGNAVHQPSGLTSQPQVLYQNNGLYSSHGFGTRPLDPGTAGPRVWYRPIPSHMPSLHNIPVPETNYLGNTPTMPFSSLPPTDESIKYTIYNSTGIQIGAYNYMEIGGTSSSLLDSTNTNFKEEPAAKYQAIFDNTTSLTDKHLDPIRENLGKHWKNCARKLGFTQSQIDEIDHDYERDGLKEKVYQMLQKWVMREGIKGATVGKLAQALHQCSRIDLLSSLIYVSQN"}, "source": "patent US11407736B2", "about": "(priority 2019, dated 2022)", "biological_target": "RIPK1 (Homo sapiens (Human), UniProt Q13546)", "experiment": "RIPK1 ADP-Glo biochemical kinase assay", "protocol": "The final reaction volume was 5.0ul.\nAdding 5 μl of ADP-Glo™ terminated the reaction."}
{"smiles": "CN1C(=O)[C@@H](NC(=O)c2cc(Oc3ccccc3)ccn2)COc2ccc(C#CC3(F)CNC3)cc21", "note": "[Compound I-143]", "values": [{"measurement": "IC50", "result": 27.9, "unit": "nM"}]}
